Experimental data from PubChem BioAssay AID493131 (Broad Institute, 2011).
The list shows a part of the results, in another mix than the full data. Calls of active or inactive are those of the source.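 Rule for the calls: active = mean activation above about 17%, with every replicate also reaching it (limit read from the data, passing the limit was not always enough); inconclusive = only one of the two conditions met; inactive = the rest.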

Sequences of proteins named here, by UniProt entry; tags and fusion partners are left off. A change or cut given only in a name is not applied to a line headed by its entry.
UniProt P13346: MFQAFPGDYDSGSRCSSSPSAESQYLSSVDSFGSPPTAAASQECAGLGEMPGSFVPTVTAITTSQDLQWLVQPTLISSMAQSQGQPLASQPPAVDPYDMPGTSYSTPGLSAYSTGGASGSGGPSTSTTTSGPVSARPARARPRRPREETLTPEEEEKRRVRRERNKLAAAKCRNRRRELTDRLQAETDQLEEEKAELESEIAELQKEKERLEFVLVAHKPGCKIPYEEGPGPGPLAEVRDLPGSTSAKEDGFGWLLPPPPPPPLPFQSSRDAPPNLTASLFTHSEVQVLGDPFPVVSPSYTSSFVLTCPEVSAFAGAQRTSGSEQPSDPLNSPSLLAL

The compounds below were run against Protein FosB (Mus musculus) (UniProt P13346) (assay: activators of delta FosB homodimer, primary screen, biochemical, fluorescence polarization, TAMRA-CDK5 oligo, single point (AID 493131;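 note: fluorescence polarization rise as delta FosB binds a TAMRA Cdk5 AP-1 oligo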)). Details: purified delta FosB, at 25 µM, hits give high values, percent of positive-control signal above neutral wells.
For `NC(=O)c1cc([N+](=O)[O-])cc([N+](=O)[O-])c1N`, the activation was inactive: 4.32%. With `Clc1ccc(Cl)c(NC2=NCC(CBr)S2)c1` (configuration not stated) the activation was inactive: -1.57%. In the case of `CN1CCCC(OC(=O)C(c2ccccc2)c2ccccc2)C1` (configuration not stated), the activation is reported as inactive: -7.5%. In the case of `COc1ccccc1OP(=O)(Nc1ccc(C)cn1)Oc1ccccc1OC`, the activation is reported as inactive: 6.89%. For `Nc1cccc2ccc([As](=O)(O)O)cc12`, the activation was inactive: -9.59%. `CCN(N=Nc1nonc1N)c1nonc1N` was tested, and the activation was inactive: -0.41%. For `O=P(Nc1nc2ccc(Cl)cc2s1)(c1ccccc1)c1ccccc1`, the activation was inactive: 2.57%. For `CCCC1OP(N)(=O)OCC1CC` (configuration not stated), the activation was inactive: -6.04%. `O=C(O)c1ccccc1[As](=O)(O)O` was tested, and the activation was inactive: 0.905%. With `CC(=O)Nc1ccc([As](=O)(O)O)cc1` the activation was inactive: -2.03%. `Cc1ccc(NP(=O)(Oc2ccccc2F)Oc2ccccc2F)nc1` was tested, and the activation was inactive: 8.15%. For `CCOP(=O)(Nc1ccccc1)OCC`, the activation was inactive: 1.62%. `Cc1cc(SC(NC(=O)c2ccc(F)cc2)C(Cl)(Cl)Cl)ncn1` (configuration not stated) was tested, and the activation was inactive: -2.41%. With `O=[N+]([O-])c1ncn(CCn2ncnc2[N+](=O)[O-])n1` the activation was inactive: -2.51%. In the case of `CC(C)(C)C(=O)NC(Sc1ccncn1)C(Cl)(Cl)Cl` (configuration not stated), the activation is reported as inactive: 0.488%. With `O=C(O)CNc1ccc([As](=O)(O)O)cc1` the activation was inactive: 1.26%. With `O=[N+]([O-])c1cccc(NC2=NCC(CBr)S2)c1` (configuration not stated) the activation was inactive: -1.39%. In the case of `COC(=O)C1(C)COP(=O)(Nc2ccccc2)OC1` (configuration not stated), the activation is reported as inactive: 0.718%. In the case of `O=P1(N(CCCl)CCCl)OCCCS1` (configuration not stated), the activation is reported as inactive: 6.59%. For `O=C(Nc1cc([As](=O)(O)O)ccc1O)c1ccccc1`, the activation was inactive: -0.677%. With `CCN(/C(=N/P(=O)(N1CCOCC1)N1CCOCC1)N1CCOCC1)c1ccc(OC)cc1` the activation was inactive: 6.71%. `C[N+]1=C2C=CC=CC=C2SC12C([N+](=O)[O-])=CC([N+](=O)[O-])=C[C-]2[N+](=O)[O-]` (configuration not stated) was tested, and the activation was inactive: -10.7%. In the case of `Nc1ccc([As](=O)(O)c2ccc(N)cc2)cc1`, the activation is reported as inactive: -5.41%. In the case of `CC1CCN(C(=O)Oc2c(Cl)cc(Cl)c3cccnc23)CC1`, the activation is reported as inactive: -14.2%. `CN(C)C(=O)OCCc1n(C)cc[n+]1C` was tested, and the activation was inactive: 4.03%. With `CC(C)=N/N=C(\N)N[N+](=O)[O-]` the activation was inactive: -3.78%. In the case of `COc1ccc(C2=NCC(CBr)S2)cc1` (configuration not stated), the activation is reported as inactive: -1.28%. With `CCc1nc2c(n1)c1c(non1O)c1c2no[n+]1[O-]` the activation was inactive: -1.58%. In the case of `O=[N+]([O-])c1cc([N+](=O)[O-])c(CCNc2ccccc2)c([N+](=O)[O-])c1`, the activation is reported as inactive: -8.51%. With `Cc1ccc(NP(=O)(Oc2ccccc2)Oc2ccccc2)nc1` the activation was inactive: 5.21%. With `O=[N+]([O-])c1cccc2n[nH]nc12` the activation was inactive: 2.3%. With `CC(=O)N1C2C3N(C(C)=O)C1C1N(C(C)=O)C(C(N1C(C)=O)N3C(C)=O)N2C(C)=O` the activation was inactive: 7.21%.
